{"source": "patent US10669246B2", "about": "“Benzothiazol compounds and methods using the same for treating neurodegenerative disorders” (1ST Biotherapeutics, Inc., priority 2017, dated 2020)", "assay": "in vivo", "conditions": "male, ICR, mouse, po, 5 mg/kg", "data": [{"smiles": "Cc1c(F)cncc1-c1ccc2nc(NC(=O)[C@@H]3C[C@@H]3F)sc2c1", "note": "[Example 8, (1S,2S)-2-fluoro-N-(6-(5-fluoro-4-methylpyridin-3-yl)benzo[d]thiazol-2-yl)cyclopropane-1-carboxamide]", "values": [{"measurement": "AUC(0-inf)", "setting": "brain", "result": 20000, "unit": "ng·h/mL"}, {"measurement": "AUC(0-inf)", "setting": "in vivo", "result": 25200, "unit": "ng·h/mL"}, {"measurement": "AUC(0-inf)", "setting": "plasma", "result": 14500, "unit": "ng·h/mL"}]}]}
